Test results: paper PMC9413390 (Molecules, 2022)

Sequences of proteins named here, by UniProt entry; tags and fusion partners are left off.
UniProt P33535, whole entry: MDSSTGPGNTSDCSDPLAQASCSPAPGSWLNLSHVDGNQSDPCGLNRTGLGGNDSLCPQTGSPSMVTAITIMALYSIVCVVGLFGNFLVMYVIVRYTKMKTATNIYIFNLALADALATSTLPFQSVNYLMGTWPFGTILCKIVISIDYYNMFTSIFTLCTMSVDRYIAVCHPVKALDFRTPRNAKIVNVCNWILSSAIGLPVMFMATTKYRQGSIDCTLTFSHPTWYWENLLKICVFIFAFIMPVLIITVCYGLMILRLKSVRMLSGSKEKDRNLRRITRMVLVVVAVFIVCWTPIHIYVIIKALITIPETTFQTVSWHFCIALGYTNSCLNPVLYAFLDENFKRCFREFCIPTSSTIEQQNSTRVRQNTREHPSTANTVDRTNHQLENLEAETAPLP

Biological target: T1, MOR (Rattus norvegicus, UniProt P33535)
T1 construct: from tissue; host or cells: brain membranes of male Sprague-Dawley rats
Assay: MOR radioligand binding assay ([3H]-DAMGO, rat brain membranes)

C[C@@H](NC(=O)[C@@H](N)Cc1ccc(O)cc1)C(=O)NCC(=O)N(C)[C@@H](Cc1ccccc1)C(=O)NCCO [[^3H]DAMGO, reference compound]
pKd: 9.00

pKd: −log10 of the molar value.
